Patent publication US9079913B2, “Spiro-oxindole MDM2 antagonists” (The Regents of the University of Michigan, priority 2009, dated 2015)

Settings: mouse, in vivo

MI-219
oral bioavailability in mice (in words): orally bioavailable
